One compound from ChEMBL document CHEMBL1142517, “Discovery of an orally bioavailable small molecule inhibitor of prosurvival B-cell lymphoma 2 proteins” (J Med Chem, 2008) can be followed below.

Protein sequences, listed by entry. Tags and fused reporters are not part of them.
UniProt P10415, whole entry: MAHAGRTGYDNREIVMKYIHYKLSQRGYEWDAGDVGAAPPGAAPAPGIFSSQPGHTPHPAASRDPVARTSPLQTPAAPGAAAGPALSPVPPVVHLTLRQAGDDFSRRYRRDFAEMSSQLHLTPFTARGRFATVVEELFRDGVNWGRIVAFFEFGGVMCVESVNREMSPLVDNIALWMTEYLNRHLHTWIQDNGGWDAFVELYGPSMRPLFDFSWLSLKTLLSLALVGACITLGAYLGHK

In the assay the target is Apoptosis regulator Bcl-2 (Homo sapiens, UniProt P10415). Briefly: Displacement of fluorescein labeled Bax peptide from Bcl2 by fluorescence polarization assay.

With `CC1(C)CCC(c2ccc(Cl)cc2)=C(CN2CCN(c3ccc(C(=O)NS(=O)(=O)c4ccc(N[C@H](CCN5CCOCC5)CSc5ccccc5)c(S(=O)(=O)C(F)(F)F)c4)cc3)CC2)C1` [NAVITOCLAX], the Ki (in general, a measure of affinity in units of concentration, obtained from inhibition or displacement) is < 1 nM.
